Measured values from PubChem BioAssay AID463210 (The Scripps Research Institute Molecular Screening Center, 2010).
The list shows a part of the results, in another mix than the full data. Some of these compounds have results that are not shown, active ones among them. The source made the active and inactive calls.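 Rule for the calls: active = percent activation above the screen-wide mean plus 3 SD (cut at about 25% in these data); inactive = the rest.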

The chains behind the UniProt entries cited, without tags or fusion partners.
UniProt P55210, whole entry D23A/D198A/D206A: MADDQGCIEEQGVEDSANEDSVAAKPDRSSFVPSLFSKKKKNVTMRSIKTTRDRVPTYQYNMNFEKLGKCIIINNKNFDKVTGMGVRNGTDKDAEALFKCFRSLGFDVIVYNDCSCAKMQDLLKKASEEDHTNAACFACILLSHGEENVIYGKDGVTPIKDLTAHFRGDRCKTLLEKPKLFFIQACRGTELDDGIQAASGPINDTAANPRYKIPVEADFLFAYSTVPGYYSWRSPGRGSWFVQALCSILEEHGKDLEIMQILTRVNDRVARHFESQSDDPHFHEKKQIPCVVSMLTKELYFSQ

target: Caspase-7 (Homo sapiens) (UniProt P55210); test: procaspase-7 activators, primary screen, counter-screen for procaspase-3 activator project, biochemical, absorbance, HTS, human (AID 463210); conditions: recombinant procaspase-7, Ac-DEVD-pNA absorbance 405 nm; at 8.5 µM; stronger effect = higher value; D23A/D198A/D206A triple mutant, cannot self-cleave; scale: DMSO 0, 5 µM enzyme 100
Method in brief: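 Replicates: singlicate. Assay system: Procaspase-7 triple mutant (PC-7 D3A). Signal: 405 nm absorbance of p-nitroaniline. Times: 1 h preincubation, 2 h reaction. Buffer or medium: Zinc-free HEPES pH 7.4 with 300 mM NaCl, 0.01% Triton X-100. Also added: DEVD-pNA substrate. Benchmarks: DMSO wells as 0%, DMSO with 5 µM added PC-7 as 100%.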

Structure (SMILES)	activation
C=CCN1CCN(CCOC(=O)C(O)(c2ccccc2)c2ccccc2)CC1	inactive: 19.9%
O=C(NCC1(N2CCCCC2)CCCCC1)c1cc(F)c(F)cc1Cl	inactive: -8.32%
Cc1cc(C(=O)NCC2(N3CCCCC3)CCCCC2)ccc1[N+](=O)[O-]	inactive: 8.24%
CCN1CCCC(OC(=O)C2(O)c3ccccc3C=Cc3ccccc32)C1 (centres undefined)	inactive: -1.86%
O=C(NCC1(N2CCCCC2)CCCCC1)c1cccc(Br)c1	inactive: 9.13%
COc1ccc(C(=O)NCC2(N(C)C)CCCCC2)cc1	inactive: 4.37%
Cc1ccccc1C(=O)NCC1(N2CCCCC2)CCCCC1	inactive: 6.61%
CN(C)C1CCCC1OC(=O)C(O)(c1ccccc1)c1ccccc1 (centres undefined)	inactive: -0.88%
CN(C)c1ccc(C(=O)NCC2(N(C)C)CCCCC2)cc1	inactive: -4.5%
CC(C)N1C(=O)CC2(CCN(CCOC(=O)C(O)(c3ccccc3)c3ccccc3)CC2)C1=O	inactive: 9.73%
CCN(CC)CC(C)C(C)OC(=O)C(O)(c1ccccc1)c1ccccc1 (centres undefined)	inactive: 8.42%
COc1cc(SC)ccc1C(=O)NCC1(N(C)C)CCCCC1	inactive: 3.35%
Cc1ccc(C(=O)NCC2(N3CCCCC3)CCCCC2)cc1	inactive: -2.52%
O=C(NCC1(N2CCCCC2)CCCCC1)c1cc([N+](=O)[O-])ccc1Cl	inactive: 4.46%
CN1[C@@H]2CC[C@H]1CC(OC(=O)C(O)(c1ccccc1)c1ccccc1)C2 (some centres undefined)	inactive: -0.29%
COc1ccc(Br)c(C(=O)NCC2(N3CCCCC3)CCCCC2)c1	inactive: 0%
CN(C)c1cccc(C(=O)NCC2(N(C)C)CCCCC2)c1	inactive: 3.51%
CC(C)Oc1ccc(C(=O)NCC2(N(C)C)CCCCC2)cc1	inactive: -17%
O=C(OC1CN2CCC1CC2)C(CO)(c1ccccc1)c1ccccc1 (centres undefined)	inactive: -2.25%
COc1cccc(C(=O)NCC2(N3CCCCC3)CCCCC2)c1	inactive: 3.31%
COc1ccc(Cl)cc1C(=O)NCC1(N(C)C)CCCCC1	inactive: 1.4%
O=C(NCC1(N2CCCCC2)CCCCC1)c1cccc(Cl)c1	inactive: 10.9%
CN(C)C1(CNC(=O)c2ccc(Br)cc2)CCCCC1	inactive: 3.81%
COc1cc(C(=O)NCC2(N(C)C)CCCCC2)c([N+](=O)[O-])cc1OC	inactive: -0.38%
